Reference: patent US11058725B2, “CA2 compositions and methods for tunable regulation” (Obsidian Therapeutics, Inc., priority 2019, dated 2021)

Test system: TIL-matched patient-derived xenografts (hPDX)
Assay: Human PDX (hPDX) model with engineered matched TIL
Type: in vivo, NSG mice
Conditions: group 1, untransduced TIL plus hIL2 (benchmark control)
Text: To evaluate the effect of regulated mbIL15 on the anti-tumor activity of tumor infiltrating lymphocytes (TIL), a human PDX (hPDX) model is used. TIL are isolated from a patient tumor sample, for example, a head and neck tumor sample, as described in Example 6. TIL are transduced with BaEV-pseudotyped lentiviral vectors containing either the IL15-292 construct or the IL15-293 construct, as described in Example 6, or with BaEV-pseudotyped lentiviral empty vector (EV), and then optionally frozen. TIL-matched patient-derived xenografts (hPDX) from the tumor sample are established via subcutaneous implant into the right flank of NSG mice. Tumor growth is measured once or twice per week using calipers. On study start, tumors are measured, and mice are randomized and placed in cohorts based on similar mean tumor volume across all groups into new cages (N=8 for each group). The engineered matched TIL are thawed if necessary, stimulated with PMA, and then infused into the tumor-bearing mice. […]
Group 1 receives untransduced TIL supplemented with recombinant human IL2 (hIL2) as benchmark control, and group 2 receives TIL transduced with constitutive mbIL15 (IL15-292). […] Blood (50 μL) was withdrawn from submandibular veins on pre-determined days. Red blood cells are lysed, stained with fluorochrome-conjugated antibodies against human CD45, CD3 and mouse CD45, and cells are analyzed by flow cytometry. […]

Substance: hIL2: recombinant human IL2 given with untransduced TIL as benchmark control [reference compound]
- tumor growth: Delayed tumor growth
